From BindingDB's records for US10807989
Several values for one entry are separate records, joined by “and”; a condition that tells them apart may be missing. Equal entries are not always repeated.

Protein sequences, listed by entry. Tags and fused reporters are not part of them. Lines headed by an entry give the natural chain unless they say otherwise; changes in a name come on top.
UniProt P41146: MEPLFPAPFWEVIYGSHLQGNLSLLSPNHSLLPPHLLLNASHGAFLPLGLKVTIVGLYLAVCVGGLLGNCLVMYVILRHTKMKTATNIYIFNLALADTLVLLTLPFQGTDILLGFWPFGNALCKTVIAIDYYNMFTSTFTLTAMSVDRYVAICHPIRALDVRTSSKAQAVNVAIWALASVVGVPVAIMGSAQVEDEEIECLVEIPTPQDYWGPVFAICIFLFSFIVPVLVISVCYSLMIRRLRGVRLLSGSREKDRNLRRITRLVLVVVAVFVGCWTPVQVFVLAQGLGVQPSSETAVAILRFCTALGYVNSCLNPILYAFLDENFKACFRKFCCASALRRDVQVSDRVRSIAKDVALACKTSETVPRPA
UniProt P35372, whole entry, looked up: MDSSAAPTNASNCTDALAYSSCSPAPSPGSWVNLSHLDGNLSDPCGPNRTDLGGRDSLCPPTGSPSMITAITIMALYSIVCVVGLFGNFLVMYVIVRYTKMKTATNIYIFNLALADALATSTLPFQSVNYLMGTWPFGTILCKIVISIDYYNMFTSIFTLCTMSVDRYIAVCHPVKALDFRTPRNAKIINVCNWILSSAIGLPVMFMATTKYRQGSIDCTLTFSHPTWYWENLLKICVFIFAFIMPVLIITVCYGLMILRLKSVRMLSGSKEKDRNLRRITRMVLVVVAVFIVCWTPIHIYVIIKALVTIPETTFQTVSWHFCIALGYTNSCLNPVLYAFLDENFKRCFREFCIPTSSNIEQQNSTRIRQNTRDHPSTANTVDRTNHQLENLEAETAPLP

Each molecule was assayed against Nociceptin receptor (Homo sapiens, UniProt P41146) (assay: Human Nociceptin/Orphanin FQ Peptide (hNOP) Receptor Binding Assay).

| SMILES | Ki |
| --- | --- |
| CN(C)[C@]1(c2ccccc2)CC[C@@]2(CC1)CN(CC(=O)N1CCOCC1)C(=O)N2CC1CC1 | 100 nM |
| CN(C)[C@]1(c2ccccc2)CC[C@]2(CC1)CN(CC(=O)NCC1CCCC[C@H]1O)C(=O)N2CC1CCC1 (stereo not given in full) | 2.1 nM |
| CN(C)[C@]1(c2ccccc2)CC[C@]2(CC1)CN(CC(=O)Nc1cccc([S+](C)[O-])n1)C(=O)N2CC1CCC1 (stereo not given in full) | 1.7 nM |
| COCCOCCOCCOCCOCCOCCOCCNC(=O)CN1C[C@]2(CC[C@](c3ccccc3)(N(C)C)CC2)N(CC2CCC2)C1=O | 33 nM and 35 nM |
| COc1ccc(NC(=O)CN2C[C@]3(CC[C@](c4ccccc4)(N(C)C)CC3)N(CC3CCC3)C2=O)nc1 | 1.6 nM |
| CN(C)[C@]1(c2ccccc2)CC[C@]2(CC1)CN(CC(=O)Nc1cnc(O)nc1)C(=O)N2CC1CCC1 | 9.8 nM |
| CN(C)[C@]1(c2ccccc2)CC[C@]2(CC1)CN(CC(=O)Nc1cccc(S(C)(=O)=O)n1)C(=O)N2CC1CCC1 | 0.9 nM |
| CNC(=O)CN1C[C@]2(CC[C@](c3ccccc3)(N(C)C)CC2)N(CCCOC)C1=O | 62 nM |
| CN(C)[C@]1(c2cccc(F)c2)CC[C@]2(CC1)CN(CC(=O)OC(C)(C)C)C(=O)N2CC1CCC1 | 2 nM |
| CN(C)[C@]1(c2ccccc2)CC[C@]2(CC1)CN(CC(=O)Nc1ccnc(C#N)n1)C(=O)N2CC1CCC1 | 1.9 nM |
| CN(C)[C@]1(c2ccccc2)CC[C@]2(CC1)CN(CC(=O)Nc1cccc(C(N)=O)n1)C(=O)N2CC1CCC1 | 0.8 nM |

The molecules below were run against Mu-type opioid receptor (Homo sapiens, UniProt P35372) (assay: Human Mu-Opioid Peptide (hMOP) Receptor Binding Assay).

| SMILES | Ki |
| --- | --- |
| CN(C)[C@]1(c2ccccc2)CC[C@]2(CC1)CN(CC(=O)NCC(N)=O)C(=O)N2CC1(C#N)CCC1 | 44 nM |
| CN(C)[C@]1(c2ccccc2)CC[C@]2(CC1)CN(CC(=O)Nc1ncccc1O)C(=O)N2CC1CCC1 | 13.5 nM |
| CN(C)CCNC(=O)CN1C[C@]2(CC[C@](c3ccccc3)(N(C)C)CC2)N(CC2CCC2)C1=O | 63 nM |
| CN(C)[C@]1(c2ccccc2)CC[C@]2(CC1)CN(CC(=O)N1CCOC(CO)C1)C(=O)N2CC1CCC1 (stereo not given in full) | 46 nM |
| COc1cncnc1NC(=O)CN1C[C@]2(CC[C@](c3ccccc3)(N(C)C)CC2)N(CC2CCC2)C1=O | 37 nM |
| Cc1cc(NC(=O)CN2C[C@]3(CC[C@](c4ccccc4)(N(C)C)CC3)N(CC3CCC3)C2=O)no1 | 44 nM |
| CN(C)[C@]1(c2ccccc2)CC[C@]2(CC1)CN(CC(=O)Nc1ccccn1)C(=O)N2CC1CCC1 | 53.5 nM |
| CN(C)[C@]1(c2ccccc2)CC[C@]2(CC1)CN(CC(=O)Nc1cncnc1O)C(=O)N2CC1CCC1 | 16 nM |
| COc1ncncc1NC(=O)CN1C[C@]2(CC[C@](c3ccccc3)(N(C)C)CC2)N(CC2CCC2)C1=O | 16.5 nM |
| CN(C)[C@]1(c2ccccc2)CC[C@]2(CC1)CN(CC(=O)Nc1cccc([S+](C)[O-])n1)C(=O)N2CC1CCC1 (stereo not given in full) | 37.3 nM |
| CNC(=O)CN1C[C@]2(CC[C@](c3ccccc3)(N(C)C)CC2)N(CC(C)C)C1=O | 47.5 nM |
| CN(C)[C@]1(c2ccccc2)CC[C@]2(CC1)CN(CC(=O)N1CCC(S(C)(=O)=O)CC1)C(=O)N2CC1(O)CCC1 | 235 nM |
| CNC(=O)CN1C[C@]2(CC[C@](c3ccccc3)(N(C)C)CC2)N(CC2(C)CCC2)C1=O | 16.5 nM |
| CN(C)[C@]1(c2ccccc2)CC[C@]2(CC1)CN(CC(N)=O)C(=O)N2CC1(O)CCC1 | 81.5 nM |
| CN(C)[C@]1(c2ccccc2)CC[C@]2(CC1)CN(CC(N)=O)C(=O)N2CC1(C#N)CCC1 | 17 nM |
| CN(C)[C@]1(c2ccccc2)CC[C@]2(CC1)CN(CC(=O)NC1COC1)C(=O)N2CC1(O)CCC1 | 44 nM |
| Cc1cccc(NC(=O)CN2C[C@]3(CC[C@](c4ccccc4)(N(C)C)CC3)N(CC3CCC3)C2=O)n1 | 51.5 nM |
| CN(C)[C@]1(c2ccccc2)CC[C@]2(CC1)CN(CC(=O)Nc1ccnnc1)C(=O)N2CC1CCC1 | 53.5 nM |
| CCN(C)[C@]1(c2ccccc2)CC[C@]2(CC1)CN(CC(=O)NC)C(=O)N2CC1CCC1 | 370 nM |
| CN(C)[C@]1(c2ccccc2)CC[C@]2(CC1)CN(CC(=O)Nc1ccccn1)C(=O)N2CC1(O)CCC1 | 100 nM |

| SMILES | Ki |
| --- | --- |
| CN(C)[C@]1(c2ccccc2)CC[C@]2(CC1)CN(CC(=O)NCC1(O)CCC1)C(=O)N2CC1CCC1 | 33 nM |
| CN(C)[C@]1(c2ccccc2)CC[C@]2(CC1)CN(CC(=O)Nc1ccncc1F)C(=O)N2CC1CCC1 | 41.5 nM |
| CN(C)[C@]1(c2ccccc2)CC[C@]2(CC1)CN(CC(=O)NCc1cnco1)C(=O)N2CC1CCC1 | 10 nM |
| CN(C)[C@]1(c2ccccc2)CC[C@@]2(CC1)CN(CC(=O)N1CCS(=O)(=O)CC1)C(=O)N2CC1CC1 | 4.4 nM |
| COCCOCCOCCOCCOCCOCCOCCOCCNC(=O)CN1C[C@]2(CC[C@](c3ccccc3)(N(C)C)CC2)N(CC2CCC2)C1=O | 360 nM |
| COCCCN1C(=O)N(CC(=O)NCCC#N)C[C@]12CC[C@](c1ccccc1)(N(C)C)CC2 | 75.5 nM |
| COc1ccccc1CNC(=O)CN1C[C@]2(CC[C@](c3ccccc3)(N(C)C)CC2)N(CC2CCC2)C1=O | 4.4 nM |
| CSc1[nH]nc(NC(=O)CN2C[C@]3(CC[C@](c4ccccc4)(N(C)C)CC3)N(CC3CCC3)C2=O)c1C#N | 16.5 nM |
| COc1ccnc(CNC(=O)CN2C[C@]3(CC[C@](c4ccccc4)(N(C)C)CC3)N(CC3CCC3)C2=O)n1 | 2.7 nM |
| CN(C)[C@]1(c2ccccc2)CC[C@]2(CC1)CN(CC(=O)Nc1ncncc1C#N)C(=O)N2CC1CCC1 | 37.5 nM |
| CN(C)[C@]1(c2ccccc2)CC[C@]2(CC1)CN(CC(=O)NCc1cocn1)C(=O)N2CC1CCC1 | 12 nM |
| CN(C)[C@]1(c2ccccc2)CC[C@]2(CC1)CN(CC(=O)NCc1ccccc1O)C(=O)N2CC1CCC1 | 16.5 nM |
| CN(C)[C@]1(c2ccccc2)CC[C@]2(CC1)CN(CC(=O)Nc1cncnc1)C(=O)N2CC1(O)CCC1 | 99 nM |
| COCCNC(=O)CN1C[C@]2(CC[C@](c3ccccc3)(N(C)C)CC2)N(CC2CCC2)C1=O | 60 nM |
| COc1ncc(NC(=O)CN2C[C@]3(CC[C@](c4ccccc4)(N(C)C)CC3)N(CC3CCC3)C2=O)cn1 | 13.5 nM |
| COCCCN1C(=O)N(CC(=O)Nc2cccc(OC)n2)C[C@]12CC[C@](c1ccccc1)(N(C)C)CC2 | 175 nM |
| CN(C)[C@]1(c2ccccc2)CC[C@]2(CC1)CN(CC(=O)Nc1cccc(S(C)(=O)=O)n1)C(=O)N2CC1CCC1 | 23.5 nM |
| CN(C)[C@]1(c2ccccc2)CC[C@@]2(CC1)CN(CC(=O)N1CCOCC1)C(=O)N2 | 51.5 nM |
| COc1ncc(CNC(=O)CN2C[C@]3(CC[C@](c4ccccc4)(N(C)C)CC3)N(CC3CCC3)C2=O)cn1 | 29.5 nM |
| CN(CCO)C(=O)CN1C[C@]2(CC[C@](c3ccccc3)(N(C)C)CC2)N(CC2CCC2)C1=O | 47.5 nM |

| SMILES | Ki |
| --- | --- |
| CN(C)[C@]1(c2ccccc2)CC[C@]2(CC1)CN(CC(=O)N1CCC[C@H]1C(N)=O)C(=O)N2CC1CCC1 | 47.5 nM |
| CN(C)[C@]1(c2ccccc2)CC[C@]2(CC1)CN(CC(=O)Nc1nccs1)C(=O)N2CC1CCC1 | 81.5 nM |
| CN(C)[C@]1(c2cccc(F)c2)CC[C@]2(CC1)CN(CC(=O)NCCO)C(=O)N2CC1CCC1 | 135 nM |
| CN(C)[C@]1(c2ccccc2)CC[C@]2(CC1)CN(CC(=O)N1CCOCC1)C(=O)N2CC1(O)CCC1 | 960 nM |
| COCCN1C(=O)N(CC(=O)NCCO)C[C@]12CC[C@](c1ccccc1)(N(C)C)CC2 | 630 nM |
| CN(C)C(=O)CN(C)C(=O)CN1C[C@]2(CC[C@](c3ccccc3)(N(C)C)CC2)N(CC2CCC2)C1=O | 175 nM |
| CNC(=O)CN(C)C(=O)CN1C[C@]2(CC[C@@](NC)(c3ccccc3)CC2)N(CC2CCC2)C1=O | 370 nM |
| CNC(=O)CN1C[C@]2(CC[C@](c3ccccc3)(N(C)C)CC2)N(CC2CC2)C1=O | 9.6 nM |
| COc1cc(NC(=O)CN2C[C@]3(CC[C@](c4ccccc4)(N(C)C)CC3)N(CC3CCC3)C2=O)ccn1 | 75.5 nM |
| CN(C)[C@]1(c2ccccc2)CC[C@]2(CC1)CN(CC(=O)N1CCS(=O)(=O)CC1)C(=O)N2CC1(O)CCC1 | 360 nM |
| CN(C)[C@]1(c2ccccc2)CC[C@]2(CC1)CN(CC(=O)Nc1ccc(C#N)cn1)C(=O)N2CC1CCC1 | 62 nM |
| Cc1cccc(CNC(=O)CN2C[C@]3(CC[C@](c4ccccc4)(N(C)C)CC3)N(CC3CCC3)C2=O)n1 | 2.3 nM |
| CN(C)[C@]1(c2ccccc2)CC[C@]2(CC1)CN(CC(=O)NC1COC1)C(=O)N2CC1CCC1 | 37 nM |
| CN(C)[C@]1(c2ccccc2)CC[C@]2(CC1)CN(CC(=O)Nc1ccc(C(N)=O)cn1)C(=O)N2CC1CCC1 | 26.2 nM |
| COc1ncccc1CNC(=O)CN1C[C@]2(CC[C@](c3ccccc3)(N(C)C)CC2)N(CC2CCC2)C1=O | 10 nM |
| CN(C)[C@]1(c2ccccc2)CC[C@]2(CC1)CN(CC(=O)Nc1cc(C(N)=O)ccn1)C(=O)N2CC1CCC1 | 50.5 nM |
| CN(C)[C@]1(c2ccccc2)CC[C@@]2(CC1)CN(CC(=O)NCCO)C(=O)N2CC1CCC1 | 80.5 nM |
| Cn1cnc(CNC(=O)CN2C[C@]3(CC[C@](c4ccccc4)(N(C)C)CC3)N(CC3CCC3)C2=O)c1 | 27.5 nM |
| COc1cccc(CNC(=O)CN2C[C@]3(CC[C@](c4ccccc4)(N(C)C)CC3)N(CC3CCC3)C2=O)n1 | 6 nM |
